# What was measured:
# [1] = Pharmacokinetic study with IV dosing; conditions: IV 2 mg/kg, male C57BL/6 mice
# [2] = Pharmacokinetic study with IP dosing; conditions: IP 10 mg/kg, male C57BL/6 mice
SMILES,T1/2 [1] [min],T1/2 [2] [min]
"COc1ccc2c(c1)C(c1ccc(Cl)cc1)=N[C@@H]([C@@H](C)C(=O)NCCCCCNC(=O)COc1cccc3c1C(=O)N(C1CCC(=O)NC1=O)C3=O)c1nnc(C)n1-2 (stereo partly drawn) [Compound 1, (2R)-2-((4S)-6-(4-chlorophenyl)-8-methoxy-1-methyl-4H-benzo[f][1,2,4]triazolo [4,3-a][1,4]diazepin-4-yl)-N-(5-(2-((2-(2,6-dioxopiperidin-3-yl)-1,3-dioxoisoindolin-4-yl)oxy)acetamido)pentyl)propanamide]",30.9,43.3
"COc1ccc2c(c1)C(c1ccc(Cl)cc1)=N[C@@H]([C@@H](C)C(=O)NCCOCCOCCNC(=O)COc1cccc3c1C(=O)N(C1CCC(=O)NC1=O)C3=O)c1nnc(C)n1-2 (stereo partly drawn) [Compound 5, (2R)-2-((4S)-6-(4-chlorophenyl)-8-methoxy-1-methyl-4H-benzo[f][1,2,4]triazolo [4,3-α][1,4]diazepin-4-yl)-N-(2-(2-(2-(2-((2-(2,6-dioxopiperidin-3-yl)-1,3-dioxoisoindolin-4-yl)oxy)acetamido)ethoxy)ethoxy)ethyl) propanamide]",22,37.4
